Assay results published in ChEMBL document CHEMBL3351266, “Recent advances in the discovery of small molecule inhibitors of interleukin-1 receptor-associated kinase 4 (IRAK4) as a therapeutic target for inflammation and oncology disorders” (J Med Chem, 2015).

Tested on: PBMC
Assay: Inhibition of lipoteichoic acid-induced IL6 production in human PBMC incubated for 30 mins by ELISA method
Type: functional, cell-based
Conditions: 0.5 h

With `CC(C)Nc1cc(Nc2ncc(Cl)cc2F)ncc1C(=O)NC[C@@H](F)C(C)(C)O` as the compound, how does the EC50 read?
Its EC50 is 45 nM.

With `Cc1cc(C#N)cnc1Nc1cc(NC(C)C)c(C(=O)NC[C@@H](F)C(C)(C)O)cn1` as the compound, how does the EC50 read?
The EC50 was 62 nM.
